Reference: patent US20050090551A1, “Therapeutic use of methionine for the treatment or prevention of mucositis” (Board of Trustees of Southern Illinois University, priority 2003, published 2005)

Test system: male Wistar rats
Assay: Survival and general condition (activity, coat) during CDDP study period
Settings: 16 mg/kg CDDP alone (treated control group)

With cis-diamminedichloroplatinum(II) the “animals surviving to the end of the study period” value was 5/10 and the “animals that did not survive to the end of the study period” value was 50%.
